UUG fidelity: modulators of yeast start codon fidelity, primary screen, whole organism, S. cerevisiae, single point, plate reader | activity score, % at 18.7 µM | 350,000 tested, 0.13% active | S. cerevisiae UUG-firefly luciferase reporter, luminescence/redox ratio;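 active means replicate mean at a twofold rise or more, about +100% in these data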;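 further: firefly luciferase made from a UUG start codon reports start codon fidelity; reporter light over untreated wells divided by growth signal over untreated wells; some hits fall short of that in this replicate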
S100A4 MyoIIA: inhibitors of S100A4-myosin IIA peptide binding, primary screen, biochemical, fluorescence polarization, TAMRA-MyoIIA peptide; hit rate 0.14% among 360,000; Protein S100-A4 (Homo sapiens), P26447; inhibition, % at 10.7 µM;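 active = mean inhibition of at least 70% across replicates, with every replicate also reaching that level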
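Material: human S100A4 monomer with TAMRA-labelled myosin IIA peptide; buffer or medium: HEPES pH 7.2 with CaCl2, KCl, NaCl, DTT, Triton; compound dosing: one concentration per compound; schedule: 5 min incubation before reading; benchmarks: neutral control DMSO, positive control TFP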
ARNT-TACC3 inh: disruptors of ARNT/TACC3 protein interaction, primary screen, biochemical, AlphaScreen, single concentration. AlphaScreen His-ARNT PAS-B/GST-TACC3 binding, luminescence; TACC3 fragment carries E629A point mutation. hit rate 0.66% among 390,000. inhibition, % at 9.99 µM. Transforming acidic coiled-coil-containing protein 3 (Homo sapiens), Q9Y6A5. AID 623870, 2012;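 active = mean inhibition of replicates at least 50% and at least half of replicates each reaching 50%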;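 note: 0% = complete ARNT plus TACC3 wells and 100% = ARNT alone without TACC3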
ERAP1 inh: human ERAP1 aminopeptidase inhibitors, primary screen, biochemical, single point, plate reader; Endoplasmic reticulum aminopeptidase 1 (Homo sapiens), Q9NZ08; recombinant ERAP1, Leu-AMC fluorescence, 60 min; inhibition, % at 10.7 µM; hit rate 0.15% among 340,000;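 active = mean replicate inhibition of at least 30%, or all replicates individually reaching that 30% level; inactive = mean below 30% and not every replicate reaching it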;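 note: 0% = neutral control wells and 100% = L-leucinethiol positive control wells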
AF4-AF9 inh: inhibitors of AF4 peptide binding to AF9, primary screen, biochemical, AlphaScreen, biotin-AF4 peptide, FLAG-AF9, single point; Protein AF-9 (Homo sapiens), P42568; inhibition, % at 10 µM; AID 651704, 2012; hit rate 0.47% among 350,000;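 active = every replicate reaching a set inhibition limit, whatever the replicate mean, cut at about 25% in these data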;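 note: 0% = plate neutral control median and 100% = total signal loss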
E-sel inducer: E-selectin induction in HUVECs, primary screen, imaging, HUVEC, immunofluorescence imaging, single point; normalized: neutral wells 0, TNF-alpha wells 100; AID 686992, 2013; hit rate 0.37% among 260,000; activation, % at 7.58 µM; P16581;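 active = mean E-selectin-positive cell signal at least 10% of the positive control, reached in at least 60% of replicates, without over 20% cell loss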
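Test system – human umbilical vein endothelial cells (HUVEC), E-selectin induction · Input – 3,000 HUVEC seeded per well · Buffer or medium – EGM-2, gelatin · Compound dosing – single-point compound dose · Detection – immunofluorescence imaging · Measure – percent E-selectin-positive cells · Controls – TNF-alpha high, DMSO low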
AlphaScreen ctr: AlphaScreen signal interference compounds, dose response, artefact control for ARNT-TACC3 interaction inhibitor project, biochemical, luminescence, cherry-pick | His-ARNT PASB-GST AlphaScreen artifact counter-screen | AC50, µM (highest dose often 68 µM), for inactives: top-dose activity change, negative = signal decrease | shares compounds with ARNT-TACC3 inh | AID 651705, 2012 | hit rate 50% among 1,200;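 active = every separate test run was called active for a drop in luminescence, with AC50 within twice the top valid dose, actives reach about 71 µM in these data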
The depositor's hits bear a star; . = not tested or not shown; [ ] = dose if it differs, or a comment. Sampled rows, rich in hits. Any-hit rate of the full collection: about 1.3%.

Abbreviations – A = UUG fidelity; B = S100A4 MyoIIA; C = ARNT-TACC3 inh; D = ERAP1 inh; E = AF4-AF9 inh; F = E-sel inducer; G = AlphaScreen ctr
canonical_smiles: Cn1c(CCNC(=O)c2ccc(Cl)c(Cl)c2)nnc1SCc1ccc(Cl)c(Cl)c1
  A = -5.8 | B = . | C = 60.5* | D = . | E = . | F = . | G = -1.9%

canonical_smiles: Cc1ccc(/C=N/NC(=O)C(=O)N/N=C/c2ccc(C)o2)o1
  A = . | B = -0.2 | C = 3.5 | D = -1.7 | E = -1.0 | F = -2.1 | G = .

canonical_smiles: Cc1ccc(/C=N/Nc2cn[nH]c(=O)n2)o1
  A = . | B = 2.7 | C = 57.0* | D = 6.9 | E = -1.3 | F = . | G = -11.2%

canonical_smiles: c1ccc(-c2cn(C[C@H]3CC[C@H](Cn4cc(-c5ccccn5)nn4)O3)nn2)nc1
  A = -11.4 | B = 50.9 | C = 72.0* | D = -2.0 | E = 1.0 | F = 0.6 | G = 7.78µM*

canonical_smiles: N[C@@H]1CC[C@H](CCn2cc(-c3ccccn3)nn2)O[C@H]1CO
  A = . | B = 8.1 | C = 74.6* | D = 0.5 | E = -1.2 | F = 0.1 | G = 6.56µM*

canonical_smiles: COc1ccc(NC(=O)N[C@@H]2CC[C@@H](CCn3cc(-c4ccccc4)nn3)O[C@@H]2CO)cc1
  A = -13.0 | B = 8.9 | C = 5.4 | D = -0.9 | E = -0.5 | F = 4.5 | G = .

canonical_smiles: O=C(N[C@@H]1CC[C@@H](CCn2cc(-c3ccccc3)nn2)O[C@H]1CO)c1cnccn1
  A = 11.0 | B = 3.0 | C = 7.0 | D = 4.1 | E = -4.7 | F = 0.1 | G = .

canonical_smiles: O=C(N[C@H]1CC[C@@H](CCn2cc(-c3ccccc3)nn2)O[C@@H]1CO)c1cnccn1
  A = 7.4 | B = 8.3 | C = active | D = 2.8 | E = -1.5 | F = -0.2 | G = -3.3%[42 µM]

canonical_smiles: COc1ccc(NC(=O)N[C@H]2CC[C@H](CCn3cc(-c4ccccn4)nn3)O[C@@H]2CO)cc1
  A = -18.5 | B = 11.4 | C = 20.0* | D = 0.6 | E = -0.4 | F = -0.1 | G = 36.4µM*

canonical_smiles: Cc1ccc(-c2cn(C[C@H]3CC[C@@H]([C@@H]4CC[C@H](Cn5cc(-c6ccc(C)cc6)nn5)O4)O3)nn2)cc1
  A = -13.3 | B = 18.3 | C = -10.8 | D = . | E = -1.6 | F = 0.0 | G = .

canonical_smiles: COc1ccc(S(=O)(=O)Nc2ccc3c(c2)C(=O)N([C@@H](C)CO)C[C@@H](C)[C@H](CN(C)C)OCCCC[C@@H](C)O3)cc1
  A = . | B = 21.2 | C = 0.2 | D = -1.0 | E = -2.4 | F = 0.6 | G = .

canonical_smiles: O=C(N[C@@H]1CC[C@H](CCn2cc(-c3ccccn3)nn2)O[C@H]1CO)c1ccccc1
  A = -3.8 | B = 7.1 | C = 76.1* | D = -1.6 | E = -1.6 | F = -0.4 | G = 60.1µM*

canonical_smiles: COCc1cn(CC[C@H]2CC[C@H](NC(=O)c3ccccc3)[C@@H](CO)O2)nn1
  A = -8.6 | B = 3.2 | C = -5.3 | D = 0.2 | E = -0.7 | F = -2.0 | G = .

canonical_smiles: O=C(C[C@H]1CC[C@H](NC(=O)c2ccccc2)[C@@H](CO)O1)Nc1ccc(-c2ccccc2)cc1
  A = -14.7 | B = 0.4 | C = -12.2 | D = -0.2 | E = -2.5 | F = 1.4 | G = .

canonical_smiles: O=C(N[C@H]1CC[C@H](CCn2cc(-c3ccccn3)nn2)O[C@@H]1CO)c1ccccc1
  A = -9.0 | B = -1.4 | C = 74.3* | D = -1.8 | E = -1.9 | F = -0.7 | G = 34.2µM*

canonical_smiles: O=C(N[C@H]1CC[C@H](CCn2cc(-c3ccccn3)nn2)O[C@H]1CO)c1ccccc1
  A = -8.2 | B = 1.3 | C = 54.0* | D = 0.4 | E = -0.8 | F = -0.4 | G = -10.3%[38 µM]

canonical_smiles: O=C(C[C@H]1CC[C@@H](NC(=O)c2ccccc2)[C@H](CO)O1)Nc1ccc(-c2ccccc2)cc1
  A = -15.9 | B = 18.1 | C = 50.6* | D = 0.9 | E = -2.0 | F = 0.2 | G = -1.0%[42 µM]

canonical_smiles: N#C[C@@H]1[C@H](c2ccccc2-c2ccccc2F)[C@@H](CO)N1C(=O)C1CCC1
  A = . | B = 12.8 | C = . | D = 2.5 | E = -1.8 | F = 0.1 | G = .

canonical_smiles: CCC(=O)N1C[C@@H](O)COC[C@@H]2O[C@@H](CC(=O)N3CCCCC3)CC[C@H]21
  A = -2.3 | B = 4.0 | C = 4.1 | D = 1.4 | E = -1.1 | F = 0.0 | G = .

canonical_smiles: CO[C@@H]1CN(C)C(=O)c2cc(NC(=O)C3CC3)ccc2OC[C@H](C)N(Cc2ccncc2)C[C@H]1C
  A = 3.9 | B = 20.5 | C = -10.5 | D = -3.7 | E = 0.3 | F = 0.2 | G = .

canonical_smiles: O=C(CSc1n[nH]c(=O)[nH]c1=O)N/N=C/c1ccccc1O
  A = . | B = . | C = 52.5* | D = . | E = . | F = . | G = -26.5%

canonical_smiles: COc1cc(/C=N/NC(=O)CSc2n[nH]c(=O)[nH]c2=O)cc(OC)c1O
  A = . | B = -6.4 | C = 56.7* | D = -2.1 | E = -1.8 | F = . | G = -36.9%

canonical_smiles: CCOc1ccccc1/C=N/NC(=O)CSc1n[nH]c(=O)[nH]c1=O
  A = . | B = 3.0 | C = -1.4 | D = 0.5 | E = -0.1 | F = . | G = .

canonical_smiles: CN(C)C(=O)C[C@@H]1C[C@@H]2c3cc(NC(=O)NC4CCCC4)ccc3O[C@@H]2[C@H](CO)O1
  A = -6.1 | B = -3.4 | C = -2.8 | D = 1.2 | E = -1.2 | F = -0.1 | G = .

canonical_smiles: COc1cccc(-c2cnc3c(c2)C(=O)N([C@@H](C)CO)C[C@@H](C)[C@@H](CN(C)C(C)=O)O3)c1
  A = 0.0 | B = -1.0 | C = -12.8 | D = -3.1 | E = -3.7 | F = 0.8 | G = .

canonical_smiles: COc1ccccc1NC(=O)N(C)C[C@@H]1Oc2ncc(C#CCC(C)C)cc2C(=O)N([C@@H](C)CO)C[C@H]1C
  A = 7.6 | B = -16.2 | C = -6.8 | D = 2.4 | E = 2.6 | F = 0.5 | G = .

canonical_smiles: O=C(CCc1ccccc1)Nc1nnc(-c2ccccn2)o1
  A = . | B = 0.7 | C = 51.8* | D = -2.2 | E = -0.7 | F = . | G = -5.7%

canonical_smiles: O=C(COc1ccc(Cl)cc1)Nc1nnc(-c2ccco2)o1
  A = . | B = 6.4 | C = 25.4* | D = -1.4 | E = -1.3 | F = . | G = -31.1%

canonical_smiles: O=C(CCc1ccccc1)Nc1nnc(-c2cccs2)o1
  A = -17.4 | B = -3.0 | C = 24.7 | D = -2.9 | E = 6.1 | F = 0.1 | G = .

canonical_smiles: O=C(Cc1ccccc1)Nc1nnc(-c2ccco2)o1
  A = . | B = 9.7 | C = 65.5* | D = 3.2 | E = 1.1 | F = . | G = -19.2%

Part of the list above, as labelled records:
O=C(CCc1ccccc1)Nc1nnc(-c2ccccn2)o1
  UUG fidelity: .
  S100A4 MyoIIA: 0.7
  ARNT-TACC3 inh: 51.8*
  ERAP1 inh: -2.2
  AF4-AF9 inh: -0.7
  E-sel inducer: .
  AlphaScreen ctr: -5.7%
N#C[C@@H]1[C@H](c2ccccc2-c2ccccc2F)[C@@H](CO)N1C(=O)C1CCC1
  UUG fidelity: .
  S100A4 MyoIIA: 12.8
  ARNT-TACC3 inh: .
  ERAP1 inh: 2.5
  AF4-AF9 inh: -1.8
  E-sel inducer: 0.1
  AlphaScreen ctr: .

Remaining list, next part:
Abbreviations – A = UUG fidelity; B = S100A4 MyoIIA; C = ARNT-TACC3 inh; D = ERAP1 inh; E = AF4-AF9 inh; F = E-sel inducer; G = AlphaScreen ctr
canonical_smiles: O=C(Nc1nnc(-c2ccc(F)cc2)o1)c1ccco1
  A = -6.4 | B = 21.2 | C = 41.7* | D = 5.2 | E = 5.1 | F = 0.4 | G = -25.4%

canonical_smiles: CCCNC(=O)N1C[C@H](C)[C@@H](OC)CN(C)C(=O)c2cc(NC(=O)C3CCC3)ccc2OC[C@H]1C
  A = . | B = . | C = . | D = . | E = . | F = -0.1 | G = .

canonical_smiles: O=C(C[C@@H]1C[C@H]2c3cc(NC(=O)C4CCOCC4)ccc3O[C@H]2[C@H](CO)O1)NCCc1ccccc1
  A = 3.7 | B = 1.5 | C = -9.4 | D = -1.5 | E = -0.7 | F = 0.1 | G = .

canonical_smiles: CC(C)OC(=O)N(C)C[C@@H]1OCc2cn(nn2)CCCC(=O)N([C@H](C)CO)C[C@@H]1C
  A = . | B = -27.2 | C = -4.5 | D = -3.1 | E = 0.9 | F = -0.1 | G = .

canonical_smiles: Cc1ccc(C(=O)Nc2nnc(-c3ccco3)o2)cc1
  A = -17.6 | B = -3.4 | C = 29.3 | D = 1.5 | E = -3.8 | F = 3.6 | G = .

canonical_smiles: N#Cc1ccc(C(=O)Nc2nnc(-c3ccco3)o2)cc1
  A = . | B = 8.8 | C = 39.6* | D = 0.0 | E = 2.4 | F = . | G = -38.0%

canonical_smiles: Cc1ccsc1C(=O)Nc1nnc(-c2ccco2)o1
  A = -18.0 | B = . | C = 53.5* | D = . | E = . | F = . | G = 48.1µM*

canonical_smiles: Cn1ccnc1-c1nc2ccccc2[nH]c1=O
  A = -10.9 | B = -1.5 | C = 71.4* | D = 9.1 | E = -7.3 | F = . | G = -11.5%

canonical_smiles: CCCCn1nnnc1-c1nc2ccccc2[nH]c1=O
  A = . | B = -2.4 | C = . | D = -2.3 | E = -0.3 | F = 0.1 | G = .

canonical_smiles: O=C(CSc1cccc2cccnc12)N1CCCC1
  A = . | B = . | C = 87.3* | D = . | E = . | F = . | G = 10.2µM*

Of the compounds above, these have a cyano group:
Abbreviations – A = UUG fidelity; B = S100A4 MyoIIA; C = ARNT-TACC3 inh; D = ERAP1 inh; E = AF4-AF9 inh; F = E-sel inducer; G = AlphaScreen ctr
canonical_smiles: N#C[C@@H]1[C@H](c2ccccc2-c2ccccc2F)[C@@H](CO)N1C(=O)C1CCC1
  A = . | B = 12.8 | C = . | D = 2.5 | E = -1.8 | F = 0.1 | G = .

canonical_smiles: N#Cc1ccc(C(=O)Nc2nnc(-c3ccco3)o2)cc1
  A = . | B = 8.8 | C = 39.6* | D = 0.0 | E = 2.4 | F = . | G = -38.0%

From PubChem
